{"source": "ChEMBL document CHEMBL6134834", "about": "“Aromatic nitroolefin with inhibition efficacy in triple-negative breast cancer cells by dual targeting RXRα and tubulins” (Eur J Med Chem, 2025)", "key": {"[1]": {"assay": "Cytotoxicity against mouse MLE-12 cells assessed as inhibition of cell growth at 1.25 to 5 uM incubated for 24 hrs by MTT assay", "type": "toxicity, cell-based", "conditions": "mle-12, 24 h, dose 1.25-5 µM"}, "MCF-10A": {"tested_on": "MCF-10A", "assay": "Cytotoxicity against human MCF-10A cells assessed as inhibition of cell growth at 1.25 to 5 uM incubated for 24 hrs by MTT assay", "type": "toxicity, cell-based", "conditions": "dose 1.25-5 µM"}}, "data": [{"smiles": "COc1cc(/C=C/[N+](=O)[O-])c2ccccc2c1", "values": [{"measurement": "Activity", "setting": "[1]", "result": "Non-toxic"}, {"measurement": "Activity", "setting": "MCF-10A", "result": "Non-toxic"}]}]}
